{
  "source": "patent US20090215638A1",
  "about": "“ANTIBIOTIC SUSCEPTIBILITY AND VIRULENCE FACTOR DETECTION IN PSEUDOMONAS AERUGINOSA” (priority 2005, published 2009)",
  "tested_on": "P. aeruginosa clinical isolates",
  "design": "species or system Pseudomonas aeruginosa",
  "conditions": "predicted from mutations and resistance genes found by array in 60 isolates",
  "data": [
    {"smiles": "CC(C)(O/N=C(\\C(=O)N[C@@H]1C(=O)N2C(C(=O)[O-])=C(C[n+]3ccccc3)CS[C@H]12)c1csc(N)n1)C(=O)O", "note": "[Ceftazidim, ceftazidime]", "values": [
      {"measurement": "Cumulative resistance predicttion deduced from array", "result": 40, "unit": "%"}
    ]}
  ]
}
